Test results published in PMC6338342 (Journal of chromatography. B, Analytical technologies in …, 2016).

Settings: male, Sprague-Dawley, rat, serum, po

- MRT inf (3 g/kg): 10.5 ± 13.5 h
- Tmax (12 g/kg): 1.83 ± 0.26 h
SMILES: CC(C)=CCc1cc(-c2coc3cc(O)ccc3c2=O)ccc1O [Neobavaisoflavone, neobavaisoflavone]
